Experimental data taken from patent US5986061A (priority 1995, dated 1999).

Experiments:
[1] = test system: vesicular stomatitis virus and bovine MDBK cells; settings: literature (16, 28, 63); cited from earlier work
[2] = molecular target: T1, Hu-IFN-α/β receptor on bovine MDBK cells (Bos taurus, UniProt Q04790+Q95141); settings: literature (16, 28, 63); cited from earlier work
T1 construct: endogenous in cells; host or cells: MDBK
T1 sequence (Q04790 25-560): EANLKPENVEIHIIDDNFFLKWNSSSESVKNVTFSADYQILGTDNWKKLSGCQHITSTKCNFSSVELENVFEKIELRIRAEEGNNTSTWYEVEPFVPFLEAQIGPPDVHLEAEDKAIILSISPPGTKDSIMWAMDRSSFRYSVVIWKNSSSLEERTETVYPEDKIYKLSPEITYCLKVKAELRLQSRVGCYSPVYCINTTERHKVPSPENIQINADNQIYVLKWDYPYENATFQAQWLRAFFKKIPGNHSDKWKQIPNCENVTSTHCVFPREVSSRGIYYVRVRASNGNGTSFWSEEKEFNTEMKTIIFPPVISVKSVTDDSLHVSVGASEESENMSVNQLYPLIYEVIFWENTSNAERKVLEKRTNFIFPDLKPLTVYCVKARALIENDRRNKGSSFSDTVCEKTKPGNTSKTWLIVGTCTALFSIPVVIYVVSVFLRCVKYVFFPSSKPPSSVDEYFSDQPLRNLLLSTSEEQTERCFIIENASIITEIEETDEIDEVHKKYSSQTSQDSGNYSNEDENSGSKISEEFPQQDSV
T1 sequence (Q95141 27-530): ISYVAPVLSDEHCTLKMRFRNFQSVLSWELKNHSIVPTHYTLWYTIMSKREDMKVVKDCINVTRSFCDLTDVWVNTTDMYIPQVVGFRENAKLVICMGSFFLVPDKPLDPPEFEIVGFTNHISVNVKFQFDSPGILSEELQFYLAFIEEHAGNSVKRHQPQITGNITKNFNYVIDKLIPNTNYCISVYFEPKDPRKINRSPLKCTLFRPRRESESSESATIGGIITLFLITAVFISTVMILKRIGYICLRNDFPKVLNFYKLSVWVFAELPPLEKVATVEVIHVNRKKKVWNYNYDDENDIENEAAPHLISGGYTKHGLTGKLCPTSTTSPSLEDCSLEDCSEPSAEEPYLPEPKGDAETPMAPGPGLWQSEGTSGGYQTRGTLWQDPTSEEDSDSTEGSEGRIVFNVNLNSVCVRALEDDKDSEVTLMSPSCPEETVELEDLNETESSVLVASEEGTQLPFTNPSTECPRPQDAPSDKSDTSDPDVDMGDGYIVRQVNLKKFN

[3] = molecular target: T2, Hu-IFN-α/β receptor on human Daudi cells (Homo sapiens, UniProt P17181+P48551); experiment: Binding of 32P-labelled interferon to human Daudi cells; settings: unlabelled interferon as competitor
T2 construct: to human Daudi cells was performed as described previously (17); endogenous in cells; host or cells: Daudi
T2 sequence (P48551 27-515): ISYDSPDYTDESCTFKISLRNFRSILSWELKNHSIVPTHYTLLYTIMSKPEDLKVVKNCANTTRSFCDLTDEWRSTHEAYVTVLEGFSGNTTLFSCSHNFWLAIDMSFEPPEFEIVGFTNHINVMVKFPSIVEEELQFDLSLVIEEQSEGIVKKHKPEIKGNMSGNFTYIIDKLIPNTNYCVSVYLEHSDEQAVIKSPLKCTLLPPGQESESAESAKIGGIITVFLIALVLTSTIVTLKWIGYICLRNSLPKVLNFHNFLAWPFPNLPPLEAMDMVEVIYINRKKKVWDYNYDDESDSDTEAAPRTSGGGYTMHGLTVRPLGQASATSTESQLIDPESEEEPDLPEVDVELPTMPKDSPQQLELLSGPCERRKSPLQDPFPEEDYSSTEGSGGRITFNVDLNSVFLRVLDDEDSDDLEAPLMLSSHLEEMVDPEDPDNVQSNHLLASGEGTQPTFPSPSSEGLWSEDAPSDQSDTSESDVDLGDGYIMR
T2 sequence (P17181 28-557): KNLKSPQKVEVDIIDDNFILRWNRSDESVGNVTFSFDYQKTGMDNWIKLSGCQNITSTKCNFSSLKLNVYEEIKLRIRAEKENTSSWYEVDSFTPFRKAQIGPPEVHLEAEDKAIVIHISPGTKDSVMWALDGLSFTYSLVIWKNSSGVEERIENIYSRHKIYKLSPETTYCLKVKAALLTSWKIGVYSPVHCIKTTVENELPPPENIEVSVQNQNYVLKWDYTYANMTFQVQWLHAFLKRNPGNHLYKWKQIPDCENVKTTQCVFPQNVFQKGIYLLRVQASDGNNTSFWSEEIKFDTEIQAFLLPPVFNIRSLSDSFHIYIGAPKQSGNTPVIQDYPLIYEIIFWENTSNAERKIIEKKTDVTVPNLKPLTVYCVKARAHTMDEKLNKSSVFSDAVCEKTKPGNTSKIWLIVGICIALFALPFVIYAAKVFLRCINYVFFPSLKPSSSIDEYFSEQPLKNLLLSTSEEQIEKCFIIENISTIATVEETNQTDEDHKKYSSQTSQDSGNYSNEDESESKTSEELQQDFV

Substance | antiviral activity on MDBK cell line [1] | binding to MDBK cell line [2] | competition for binding of [32P]Hu-IFN-αA-P derivatives [3]
Hu-IFN-αA: human leukocyte (alpha) interferon species A, unmodified, not phosphorylatable | high antiviral activity | binds | –
Hu-IFN-β: human fibroblast (beta) interferon | – | – | competitively blocked
